{
  "source": "patent US20120171201A1",
  "key": {"[1]": {"system": "human gastric carcinoma N87", "test": "Therapeutic efficacy in human N87 gastric carcinoma xenografted mice", "conditions": "Herceptin 20 mg/kg/dose q7d i.p."}, "HER2 positive cancer": {"system": "HER2 positive cancer", "conditions": "patients with aggressive HER2 positive cancer; cited from earlier work"}},
  "data": [
    {"substance": "Herceptin®: recombinant humanized monoclonal antibody directed against the human epidermal growth factor receptor 2 (HER2)", "values": [
      {"measurement": "gastric tumor growth inhibition", "setting": "[1]; compound 9 5 mg/kg/dose q2d×5 i.v., FIG. 5", "value": "did not inhibit gastric tumor growth"},
      {"measurement": "tumor volume increased compared to day 0", "setting": "[1]; day 40", "value": 613, "unit": "%"},
      {"measurement": "reduced risk of a relapse", "setting": "HER2 positive cancer", "value": "by more than half"}
    ]}
  ]
}
